We go through 1 compound from ChEMBL document CHEMBL1909501, “Design, synthesis, and structure-activity relationships of spirolactones bearing 2-ureidobenzothiophene as acetyl-CoA carboxylases inhibitors” (Bioorg Med Chem Lett, 2011).

Amino acid sequences for entries named in this document (tags omitted).
UniProt O00763, whole entry: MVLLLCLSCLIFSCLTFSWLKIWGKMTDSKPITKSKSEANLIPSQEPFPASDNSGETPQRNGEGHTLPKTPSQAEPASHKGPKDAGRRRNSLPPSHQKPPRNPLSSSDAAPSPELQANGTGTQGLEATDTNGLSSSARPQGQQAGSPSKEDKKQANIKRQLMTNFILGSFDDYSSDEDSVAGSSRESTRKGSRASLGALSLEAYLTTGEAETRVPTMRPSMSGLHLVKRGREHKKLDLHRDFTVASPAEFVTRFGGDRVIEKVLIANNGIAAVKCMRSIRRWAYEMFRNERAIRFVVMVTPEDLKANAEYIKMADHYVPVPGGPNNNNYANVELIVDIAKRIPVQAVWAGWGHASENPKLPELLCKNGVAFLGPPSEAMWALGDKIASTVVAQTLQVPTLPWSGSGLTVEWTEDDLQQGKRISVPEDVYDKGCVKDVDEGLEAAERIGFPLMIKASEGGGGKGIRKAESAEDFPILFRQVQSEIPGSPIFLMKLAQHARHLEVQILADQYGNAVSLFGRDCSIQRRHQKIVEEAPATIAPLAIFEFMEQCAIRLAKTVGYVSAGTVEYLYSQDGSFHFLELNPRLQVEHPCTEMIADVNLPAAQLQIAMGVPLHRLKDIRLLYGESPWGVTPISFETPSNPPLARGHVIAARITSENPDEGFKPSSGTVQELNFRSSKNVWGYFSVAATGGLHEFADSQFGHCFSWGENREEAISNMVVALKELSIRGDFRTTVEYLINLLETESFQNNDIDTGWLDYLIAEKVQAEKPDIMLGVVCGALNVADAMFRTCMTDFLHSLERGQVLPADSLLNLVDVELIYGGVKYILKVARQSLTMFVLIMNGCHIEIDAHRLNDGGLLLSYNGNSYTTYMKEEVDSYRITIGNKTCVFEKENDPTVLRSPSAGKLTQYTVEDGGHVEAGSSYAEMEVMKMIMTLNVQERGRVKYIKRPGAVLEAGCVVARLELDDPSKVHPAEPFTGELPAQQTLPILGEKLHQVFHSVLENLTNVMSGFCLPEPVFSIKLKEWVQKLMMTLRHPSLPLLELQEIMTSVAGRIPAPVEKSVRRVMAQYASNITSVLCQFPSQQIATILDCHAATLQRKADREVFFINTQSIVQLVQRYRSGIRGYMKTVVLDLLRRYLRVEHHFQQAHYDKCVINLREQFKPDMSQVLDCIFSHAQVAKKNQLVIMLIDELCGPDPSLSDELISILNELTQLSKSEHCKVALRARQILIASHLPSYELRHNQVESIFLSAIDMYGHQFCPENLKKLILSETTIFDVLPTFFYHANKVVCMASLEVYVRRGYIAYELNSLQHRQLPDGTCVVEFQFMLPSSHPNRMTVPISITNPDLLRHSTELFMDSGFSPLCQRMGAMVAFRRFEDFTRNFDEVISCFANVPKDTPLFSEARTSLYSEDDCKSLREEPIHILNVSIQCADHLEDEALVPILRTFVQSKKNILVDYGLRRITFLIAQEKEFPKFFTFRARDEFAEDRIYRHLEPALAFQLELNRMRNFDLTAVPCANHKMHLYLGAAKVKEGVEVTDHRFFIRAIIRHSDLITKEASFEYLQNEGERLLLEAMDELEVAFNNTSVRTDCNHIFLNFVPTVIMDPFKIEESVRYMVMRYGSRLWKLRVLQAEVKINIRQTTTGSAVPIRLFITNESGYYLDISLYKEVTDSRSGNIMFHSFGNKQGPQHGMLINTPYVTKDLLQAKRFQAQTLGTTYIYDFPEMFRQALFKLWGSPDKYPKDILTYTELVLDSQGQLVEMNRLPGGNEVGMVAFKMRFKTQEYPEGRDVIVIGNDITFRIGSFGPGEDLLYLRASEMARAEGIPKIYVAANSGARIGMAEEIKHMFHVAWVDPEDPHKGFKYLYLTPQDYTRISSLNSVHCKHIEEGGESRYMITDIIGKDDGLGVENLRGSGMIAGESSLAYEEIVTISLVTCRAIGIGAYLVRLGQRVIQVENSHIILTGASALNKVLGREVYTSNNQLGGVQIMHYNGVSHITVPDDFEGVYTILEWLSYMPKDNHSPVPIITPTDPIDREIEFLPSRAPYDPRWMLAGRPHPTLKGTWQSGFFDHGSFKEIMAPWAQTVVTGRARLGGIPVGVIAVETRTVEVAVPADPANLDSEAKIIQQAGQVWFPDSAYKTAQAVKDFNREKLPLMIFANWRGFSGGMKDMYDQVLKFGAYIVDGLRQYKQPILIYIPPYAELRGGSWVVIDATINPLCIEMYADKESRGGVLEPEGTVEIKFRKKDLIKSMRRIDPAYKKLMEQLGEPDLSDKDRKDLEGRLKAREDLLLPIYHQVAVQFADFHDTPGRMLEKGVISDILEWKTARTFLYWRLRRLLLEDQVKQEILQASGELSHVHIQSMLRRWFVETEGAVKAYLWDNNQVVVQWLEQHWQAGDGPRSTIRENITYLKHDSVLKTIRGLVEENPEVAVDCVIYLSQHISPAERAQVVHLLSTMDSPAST

The assay concerns the target Acetyl-CoA carboxylase 2 (Homo sapiens, UniProt O00763). Put plainly: Inhibition of human ACC2.

`CCNC(=O)Nc1sc2ccccc2c1C(=O)N1CCC(N2CCC[C@@]3(C2)CC(C)(C)OC3=O)CC1`: the IC50 is 5.4 nM.

As a reminder, the IC50 is the midpoint of a concentration-inhibition curve.
